The source made the active and inactive calls.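 Rule for the calls: active = EC50 activation potency at or below 10 µM in this mu opioid counterscreen; inactive = EC50 above 10 µM or never reaching half activation.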
Target: Mu-type opioid receptor (Homo sapiens) (UniProt P35372)
Assay: OPRM1 agonists via beta-arrestin recruitment, late-stage follow-up, counter-screen for mouse HTR2A agonist project, cell-based, luminescence, dose response, powder samples (AID 720642)
Details: U2OS OPRM1 beta-arrestin complementation

Sequences of proteins named here, by UniProt entry; tags and fusion partners are left off.
UniProt P35372, whole entry, looked up: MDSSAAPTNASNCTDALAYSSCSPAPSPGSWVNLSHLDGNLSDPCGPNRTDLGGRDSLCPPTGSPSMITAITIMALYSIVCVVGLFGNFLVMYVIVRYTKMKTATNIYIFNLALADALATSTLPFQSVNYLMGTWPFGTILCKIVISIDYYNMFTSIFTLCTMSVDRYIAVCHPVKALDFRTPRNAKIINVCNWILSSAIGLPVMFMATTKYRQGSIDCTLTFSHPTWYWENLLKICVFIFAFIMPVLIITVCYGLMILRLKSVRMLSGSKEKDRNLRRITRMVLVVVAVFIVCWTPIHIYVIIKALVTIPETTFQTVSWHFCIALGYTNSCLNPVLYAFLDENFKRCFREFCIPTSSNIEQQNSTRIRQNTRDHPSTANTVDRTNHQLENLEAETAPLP

COC(=O)C1=C(Cn2cnc3ccccc32)NC(=O)NC1c1cc(C)ccc1C (stereo unspecified)
EC50: inactive: > 92.5 µM

From PubChem BioAssay AID720642 (The Scripps Research Institute Molecular Screening Center, 2013)
